Target: Human recombinant PTP1B (hPTP1B) (Homo sapiens, UniProt P18031)
Assay: Inhibition of tri-phosphorylated insulin receptor dodecaphosphopeptide dephosphorylation by hPTP1B (malachite green)
Settings: insulin receptor 1142-1153 triphosphopeptide substrate, pH 7.4, 37° C.

Sequences of proteins named here, by UniProt entry; tags and fusion partners are left off. A change or cut given only in a name is not applied to a line headed by its entry.
UniProt P18031: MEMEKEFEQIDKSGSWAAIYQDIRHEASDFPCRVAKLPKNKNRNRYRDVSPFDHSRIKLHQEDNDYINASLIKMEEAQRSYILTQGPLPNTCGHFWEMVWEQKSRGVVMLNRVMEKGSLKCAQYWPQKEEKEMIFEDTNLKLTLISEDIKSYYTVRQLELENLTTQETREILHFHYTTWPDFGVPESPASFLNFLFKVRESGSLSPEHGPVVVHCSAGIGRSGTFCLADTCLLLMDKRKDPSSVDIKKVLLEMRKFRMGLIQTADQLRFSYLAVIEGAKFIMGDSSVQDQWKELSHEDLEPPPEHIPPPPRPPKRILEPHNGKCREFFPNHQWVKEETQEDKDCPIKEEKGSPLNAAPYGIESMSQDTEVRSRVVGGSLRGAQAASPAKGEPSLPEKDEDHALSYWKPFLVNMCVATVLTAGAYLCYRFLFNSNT

Question: Which IC50 does the source give for Ammonium molybdate tetrahydrate here?
Answer: Its IC50 is 8.7 µM.
